From patent US12594337B2, “Human serum albumin in formulations” (Regeneron Pharmaceuticals, Inc., priority 2019, dated 2026)

Experiments:
[1] = Prevention of fatty acid particle formation in PS80/lipase solution, turbidity (absorbance at 450 nm); type: physicochemical; conditions: 25° C., six hours; for effect on particle formation (appearance of particles, turbidity) / onset of turbidity: 0.1% PS80, lipase
Method: Particle detection by turbidity measurement. A plate-based assay was used to detect the presence of particles by monitoring absorbance at 450 nm over time, typically 2-4 hours. The assay detects particles larger than approximately 20 nm, based on fundamental principles of light scattering (assessment of turbidity). Purified lipase was added to TKC buffer containing 0.1% polysorbate 80 at final concentration ranging from 0.4 to 5 μg/mL. The absorbance was measured at 5 minute intervals with intermittent shaking on a Spectra Max 340 plate reader held at 25° C. Baseline values were established by measuring absorbance of 0.1% polysorbate 80 without addition of lipase. Instrument control, data acquisition, and analysis were performed using SoftMax Pro software (version 6.5).
HSA contains several high and low affinity binding sites for fatty acids and therefore has the potential to act as a fatty acid sink, which could inhibit particle formation upon polysorbate hydrolysis. To test the effectiveness of HSA in preventing particle formation, 0.1% PS80 was incubated with 0.5 μg lipase in the presence of increasing concentrations of FAF-HSA at 25° C. and the solution turbidity was monitored by measuring the absorbance at 450 nm for six hours.
HSA loaded with stearic acid (SA-HSA) was prepared by adding 70 mM pure stearic acid (Sigma) in ethanol to FAF-HSA in a 3:1 molar ratio, incubating at room temperature for 30-60 minutes at 25° C., then centrifuging at 22,000 rcf for 4 minutes to pellet un-bound steric acid, followed by addition of 0.5 mg lipase and 0.1% PS80, and absorbance at 450 nm was monitored for six hours.
To test specificity of fatty acid particle mitigation to HSA, different concentrations of human polyclonal IgG were added to solution containing 0.5 μg lipase and 0.1% PS80 at 25° C. and absorbance at 450 nm was monitored for six hours.
The increase in turbidity can likely attributed to protein lyophilization. To determine if the increase in turbidity was due to the way that the protein was processed (i.e., lyophilized), a solution-state mAb in two ways was prepared; one that was unmodified from its purified solution state, and one that mimicked the manufacturer's lyophilization process used for the poly IgG preparation. The monoclonal antibody was lyophilized and reconstituted per the polyclonal IgG manufacturer's instructions to replicate processing, and then added to a solution containing 0.5 μg lipase and 0.1% PS80 at 25° C. and absorbance at 450 nm was monitored for six hours. […] The plots depict absorbance at 450 nm as a function of time for various monoclonal IgG concentrations. A positive control sample with lipase and PS80 but without IgG (open diamonds) provides the upper limit for absorbance (˜0.55).

[2] = Solubilization of pre-formed fatty acid particles by FAF-HSA, turbidity (absorbance at 450 nm); type: physicochemical
Method: Particles were prepared by incubating 2.5 μg/mL lipase with PS80 in TKC buffer at room temperature for 3 hours, followed by centrifugation. The supernatant was discarded and the pellet was washed with buffer one time and reconstituted by sonication. For particle generation in the presence of IgG, human polyclonal IgG was added to a final concentration of 7.5 mg/mL. Mechanically dispersed pellets were deposited on 5 μm polycarbonate membrane filters (RapID; Monmouth Junction, NJ). Raman spectroscopy was performed on the particle using a RapID Single Particle Explorer with a 785 nm monochromatic laser at 100% intensity/10 second exposure time in the 50× objective to generate spectra specific to the sample.
To test the ability of HSA to solubilize pre-formed particles in solution, particles were prepared (See Materials and Methods) and diluted to obtain a maximum absorbance of ˜0.5 OD. […] A positive control sample with lipase and PS80 but without HSA (FIG. 8, closed triangles) provides the upper limit for absorbance (˜0.5).

Substance: FAF-HSA: lyophilized fatty acid free Human Serum Albumin purchased from Sigma-Aldrich
- absorbance at 450 nm over the time period ([1]; 7.5 mg/mL FAF-HSA, 0.1% PS80, 0.5 μg lipase): did not show any appreciable absorbance
- concentration giving complete inhibition of turbidity ([1]; 0.1% PS80, 0.5 μg lipase): 7.5 mg/mL
- final absorbance at 450 nm (turbidity) ([1]; 0.1% PS80, 0.5 μg lipase, increasing FAF-HSA concentrations, versus control without FAF-HSA): decrease in the final absorbance (lower turbidity)
- effect on particle formation (appearance of particles, turbidity) [1]: dose dependent response
- onset of turbidity [1]: temporal delay in the onset of turbidity
- HSA concentrations at which pre-formed particles were not fully solubilized (plateaus) ([2]; pre-formed particles diluted to ~0.5 OD): less than or equal to 3.5 mg/mL
- solution turbidity upon addition to pre-formed fatty acid particles ([2]; pre-formed particles diluted to ~0.5 OD, six hours): rapidly decreased
- HSA concentrations necessary to fully disrupt pre-formed particles ([2]; within the limits of the turbidity assay): above 5.5 mg/mL

Substance: SA-HSA: HSA loaded with stearic acid, prepared by adding stearic acid to FAF-HSA in a 3:1 molar ratio
- effect on particle formation (appearance of particles, turbidity) [1]: particle formation was not inhibited
- onset of turbidity [1]: shorter compared to samples containing equivalent amounts of FAF-HSA
